{"source": "patent US6936585B2", "about": "“Corticotropin releasing factor 2 receptor agonists” (priority 2002, dated 2005)", "key": {"CRF2R": {"target": "T1, CRF2R (Homo sapiens, UniProt Q13324)", "T1 sequence (Q13324 1-411)": "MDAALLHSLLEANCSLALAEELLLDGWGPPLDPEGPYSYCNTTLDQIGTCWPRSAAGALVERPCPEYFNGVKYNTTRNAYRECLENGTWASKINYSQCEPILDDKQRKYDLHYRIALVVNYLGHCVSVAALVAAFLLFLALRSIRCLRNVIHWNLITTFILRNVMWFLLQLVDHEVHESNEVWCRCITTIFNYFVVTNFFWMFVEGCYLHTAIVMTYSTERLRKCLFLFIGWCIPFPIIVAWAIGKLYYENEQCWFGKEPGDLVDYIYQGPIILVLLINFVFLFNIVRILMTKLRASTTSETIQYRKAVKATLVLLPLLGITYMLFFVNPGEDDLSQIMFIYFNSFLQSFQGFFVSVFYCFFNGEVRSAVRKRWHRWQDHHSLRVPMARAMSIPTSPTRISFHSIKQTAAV", "test": "CRF2R agonist activation (EC50 / Emax), called comparative CRF binding", "type": "cell-based", "settings": "for Emax: read-out: CRF2R Emax", "in_short": "(§1)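 Receptor-expressing cells are contacted with test peptide or the vehicle it is dissolved in. Lysates are then assayed for cAMP, or expression of a CRE-coupled reporter is quantitated. Engineered cells carrying receptor-G-protein fusions may replace full-length receptors.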"}, "CRF1R": {"target": "T2, CRF1R (Homo sapiens, UniProt P34998)", "T2 sequence (P34998 24-415)": "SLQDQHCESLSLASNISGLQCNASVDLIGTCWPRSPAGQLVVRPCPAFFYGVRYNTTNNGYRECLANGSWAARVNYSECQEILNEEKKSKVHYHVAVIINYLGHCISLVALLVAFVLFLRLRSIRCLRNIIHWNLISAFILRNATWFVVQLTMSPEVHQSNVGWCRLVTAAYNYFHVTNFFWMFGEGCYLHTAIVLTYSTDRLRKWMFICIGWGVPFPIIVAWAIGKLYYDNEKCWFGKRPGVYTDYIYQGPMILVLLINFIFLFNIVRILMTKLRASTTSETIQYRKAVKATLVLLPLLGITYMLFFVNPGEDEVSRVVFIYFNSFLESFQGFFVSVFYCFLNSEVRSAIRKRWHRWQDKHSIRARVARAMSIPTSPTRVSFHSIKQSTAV", "test": "CRF1R agonist activation (EC50 / Emax), called comparative CRF binding", "type": "cell-based", "settings": "for Emax: read-out: CRF1R Emax; for EC50: CRF1R EC50", "in_short": "as §1"}}}
{"smiles": "CC[C@H](C)[C@H](NC(=O)[C@@H](NC(=O)[C@H](CC(=O)O)NC(=O)[C@H](CC(C)C)NC(=O)[C@H](CC(C)C)NC(=O)[C@H](CC(C)C)NC(=O)[C@H](CCCNC(=N)N)NC(=O)[C@H](CC(N)=O)NC(=O)[C@H](CC(N)=O)NC(=O)[C@@H](NC(=O)[C@H](C)NC(=O)[C@H](CCC(N)=O)NC(=O)[C@H](CCC(N)=O)NC(=O)[C@H](CCCCN)NC(=O)[C@H](CCC(=O)O)NC(=O)[C@H](CCCCN)NC(=O)[C@H](CCC(=O)O)NC(=O)[C@H](CCC(N)=O)NC(=O)[C@H](CCCCN)NC(=O)[C@H](CCC(=O)O)NC(=O)[C@@H](NC(=O)[C@H](CCC(=O)O)NC(=O)[C@@H](NC(=O)[C@H](CCSC)NC(=O)[C@H](CCCCN)NC(=O)[C@H](CCCNC(=N)N)NC(=O)[C@H](CC(C)C)NC(=O)[C@H](CC(C)C)NC(=O)[C@H](CCC(N)=O)NC(=O)[C@H](Cc1ccccc1)NC(=O)[C@@H]1CCCN1C(=O)[C@H](CC(C)C)NC(=O)[C@H](CC(=O)O)NC(=O)[C@@H](NC(=O)[C@H](CO)NC(=O)[C@@H](NC(=O)[C@@H]1CCCN1C(=O)[C@@H]1CCCN1C(=O)CNC(=O)[C@@H]1CCC(=O)N1)[C@@H](C)CC)[C@@H](C)CC)[C@@H](C)CC)[C@@H](C)CC)[C@@H](C)O)[C@@H](C)O)C(N)=O", "note": "[compound 14]", "values": [{"measurement": "Emax", "setting": "CRF2R", "result": 90, "unit": "%"}, {"measurement": "Emax", "setting": "CRF1R", "result": 92, "unit": "%"}]}
{"smiles": "CC[C@H](C)[C@H](NC(=O)[C@H](CCCNC(=N)N)NC(=O)[C@H](C)NC(=O)[C@H](CC(C)C)NC(=O)[C@H](CC(C)C)NC(=O)[C@H](CCCNC(=N)N)NC(=O)[C@H](C)NC(=O)[C@H](CC(N)=O)NC(=O)[C@H](CC(N)=O)NC(=O)[C@H](C)NC(=O)[C@H](C)NC(=O)[C@H](CCC(N)=O)NC(=O)[C@H](CCC(N)=O)NC(=O)[C@H](CCCCN)NC(=O)[C@H](CCC(=O)O)NC(=O)[C@H](CCCCN)NC(=O)[C@H](CCC(=O)O)NC(=O)[C@H](CCC(N)=O)NC(=O)[C@H](CCCCN)NC(=O)[C@H](CCC(=O)O)NC(=O)[C@@H](NC(=O)[C@H](CCC(=O)O)NC(=O)[C@@H](NC(=O)[C@@H](NC(=O)[C@H](CCCCN)NC(=O)[C@H](CCCNC(=N)N)NC(=O)[C@H](CC(C)C)NC(=O)[C@H](CC(C)C)NC(=O)[C@@H](NC(=O)[C@H](CCC(N)=O)NC(=O)[C@@H]1CCCN1C(=O)[C@H](CC(C)C)NC(=O)[C@H](CC(=O)O)NC(=O)[C@@H](NC(=O)[C@H](CO)NC(=O)[C@@H](NC(=O)[C@@H]1CCCN1C(=O)[C@@H]1CCCN1C(=O)CNC(=O)[C@@H]1CCC(=O)N1)[C@@H](C)CC)[C@@H](C)CC)[C@@H](C)CC)C(C)C)[C@@H](C)CC)[C@@H](C)CC)C(N)=O", "note": "[compound 294]", "values": [{"measurement": "Emax", "setting": "CRF2R", "result": 100, "unit": "%"}, {"measurement": "Emax", "setting": "CRF1R", "result": 13.6, "unit": "%"}]}
{"smiles": "CC[C@H](C)[C@H](NC(=O)[C@@H](NC(=O)[C@H](CC(=O)O)NC(=O)[C@H](CC(C)C)NC(=O)[C@H](CC(C)C)NC(=O)[C@H](CC(C)C)NC(=O)[C@H](CCCNC(=N)N)NC(=O)[C@H](CC(N)=O)NC(=O)[C@H](CC(N)=O)NC(=O)[C@H](C)NC(=O)[C@H](C)NC(=O)[C@H](CCC(N)=O)NC(=O)[C@H](CCC(N)=O)NC(=O)[C@H](CCCCN)NC(=O)[C@H](CCC(=O)O)NC(=O)[C@H](CCCCN)NC(=O)[C@H](CCC(=O)O)NC(=O)[C@H](CCC(N)=O)NC(=O)[C@H](CCCCN)NC(=O)[C@H](CCC(=O)O)NC(=O)[C@@H](NC(=O)[C@H](CCC(=O)O)NC(=O)[C@@H](NC(=O)[C@H](CCSC)NC(=O)[C@H](CCCCN)NC(=O)[C@H](CCCNC(=N)N)NC(=O)[C@H](CC(C)C)NC(=O)[C@H](CC(C)C)NC(=O)[C@H](CC(C)C)NC(=O)[C@@H](NC(=O)[C@@H]1CCCN1C(=O)[C@H](CC(C)C)NC(=O)[C@H](CC(=O)O)NC(=O)[C@@H](NC(=O)[C@H](CO)NC(=O)[C@@H](NC(=O)[C@@H]1CCCN1C(=O)[C@@H]1CCCN1C(=O)CNC(=O)[C@@H]1CCC(=O)N1)[C@@H](C)CC)[C@@H](C)CC)[C@@H](C)CC)[C@@H](C)CC)[C@@H](C)CC)[C@@H](C)O)C(N)=O", "note": "[compound 35]", "values": [{"measurement": "Emax", "setting": "CRF2R", "result": 88, "unit": "%"}, {"measurement": "Emax", "setting": "CRF1R", "result": 74, "unit": "%"}]}
{"smiles": "CC[C@H](C)[C@H](NC(=O)[C@H](CCCNC(=N)N)NC(=O)[C@H](C)NC(=O)[C@H](CC(N)=O)NC(=O)[C@@H](NC(=O)[C@@H](NC(=O)[C@H](C)NC(=O)[C@H](CCC(N)=O)NC(=O)[C@H](CCC(N)=O)NC(=O)[C@H](CCCCN)NC(=O)[C@H](CCC(=O)O)NC(=O)[C@H](CCCCN)NC(=O)[C@H](CCC(=O)O)NC(=O)[C@H](CCC(N)=O)NC(=O)[C@H](CCCCN)NC(=O)[C@H](CCC(=O)O)NC(=O)[C@@H](NC(=O)[C@H](CCC(=O)O)NC(=O)[C@@H](NC(=O)[C@H](CCSC)NC(=O)[C@H](CCCCN)NC(=O)[C@H](CCCNC(=N)N)NC(=O)[C@H](CC(C)C)NC(=O)[C@H](CC(C)C)NC(=O)[C@H](Cc1ccc(O)cc1)NC(=O)[C@@H](NC(=O)[C@@H]1CCCN1C(=O)[C@@H](NC(=O)[C@H](CC(=O)O)NC(=O)[C@@H](NC(=O)[C@H](CO)NC(=O)[C@@H](NC(=O)[C@@H]1CCCN1C(=O)[C@@H]1CCCN1C(=O)CNC(=O)[C@@H]1CCC(=O)N1)[C@@H](C)CC)[C@@H](C)CC)C(C)C)[C@@H](C)O)[C@@H](C)CC)[C@@H](C)CC)[C@@H](C)O)[C@@H](C)O)C(=O)N[C@@H](CC(C)C)C(=O)N[C@@H](C)C(=O)N[C@@H](CCCNC(=N)N)C(=O)N[C@H](C(N)=O)C(C)C", "note": "[compound 170]", "values": [{"measurement": "EC50", "setting": "CRF2R", "result": 75, "unit": "nM"}, {"measurement": "Emax", "setting": "CRF2R", "result": 83, "unit": "%"}, {"measurement": "EC50", "setting": "CRF1R", "result": "≥ 1000", "unit": "nM"}, {"measurement": "Emax", "setting": "CRF1R", "result": 9, "unit": "%"}]}
{"smiles": "CC[C@H](C)[C@H](NC(=O)[C@@H](NC(=O)[C@H](CC(=O)O)NC(=O)[C@H](CC(C)C)NC(=O)[C@H](CC(C)C)NC(=O)[C@H](CC(C)C)NC(=O)[C@H](C)NC(=O)[C@H](CC(N)=O)NC(=O)[C@H](CC(N)=O)NC(=O)[C@H](C)NC(=O)[C@H](C)NC(=O)[C@H](CCC(N)=O)NC(=O)[C@H](CCC(N)=O)NC(=O)[C@H](CCCCN)NC(=O)[C@H](CCC(=O)O)NC(=O)[C@H](CCCCN)NC(=O)[C@H](CCC(=O)O)NC(=O)[C@H](CCC(N)=O)NC(=O)[C@H](CCCCN)NC(=O)[C@H](CCC(=O)O)NC(=O)[C@@H](NC(=O)[C@H](CCC(=O)O)NC(=O)[C@@H](NC(=O)[C@H](CCSC)NC(=O)[C@H](CCCCN)NC(=O)[C@H](CCCNC(=N)N)NC(=O)[C@H](CC(C)C)NC(=O)[C@H](CC(C)C)NC(=O)[C@H](Cc1c[nH]cn1)NC(=O)[C@H](Cc1ccc(O)cc1)NC(=O)[C@@H]1CCCN1C(=O)[C@H](CC(C)C)NC(=O)[C@H](CC(=O)O)NC(=O)[C@@H](NC(=O)[C@H](CO)NC(=O)[C@@H](NC(=O)[C@@H]1CCCN1C(=O)[C@@H]1CCCN1C(=O)CNC(=O)[C@@H]1CCC(=O)N1)[C@@H](C)CC)[C@@H](C)CC)[C@@H](C)CC)[C@@H](C)CC)[C@@H](C)O)C(N)=O", "note": "[compound 314]", "values": [{"measurement": "EC50", "setting": "CRF2R", "result": 10.3, "unit": "nM"}, {"measurement": "Emax", "setting": "CRF2R", "result": 99.8, "unit": "%"}, {"measurement": "EC50", "setting": "CRF1R", "result": 979, "unit": "nM"}, {"measurement": "Emax", "setting": "CRF1R", "result": 82.4, "unit": "%"}]}
{"smiles": "CC[C@H](C)[C@H](NC(=O)[C@@H](NC(=O)[C@H](CC(=O)O)NC(=O)[C@H](CC(C)C)NC(=O)[C@H](CC(C)C)NC(=O)[C@H](CC(C)C)NC(=O)[C@H](CCCNC(=N)N)NC(=O)[C@H](CC(N)=O)NC(=O)[C@H](CC(N)=O)NC(=O)[C@H](C)NC(=O)[C@H](C)NC(=O)[C@H](CCC(N)=O)NC(=O)[C@H](CCC(N)=O)NC(=O)[C@H](CCCCN)NC(=O)[C@H](CCC(=O)O)NC(=O)[C@H](CCCCN)NC(=O)[C@H](CCC(=O)O)NC(=O)[C@H](CCC(N)=O)NC(=O)[C@H](CCCCN)NC(=O)[C@H](CCC(=O)O)NC(=O)[C@@H](NC(=O)[C@H](CCC(=O)O)NC(=O)[C@@H](NC(=O)[C@H](CCSC)NC(=O)[C@H](CCCCN)NC(=O)[C@H](CCCNC(=N)N)NC(=O)[C@H](CC(C)C)NC(=O)[C@H](CC(C)C)NC(=O)[C@H](CCC(N)=O)NC(=O)[C@H](C)NC(=O)[C@@H]1CCCN1C(=O)[C@H](CC(C)C)NC(=O)[C@H](CC(=O)O)NC(=O)[C@@H](NC(=O)[C@H](CO)NC(=O)[C@@H](NC(=O)[C@@H]1CCCN1C(=O)[C@@H]1CCCN1C(=O)CNC(=O)[C@@H]1CCC(=O)N1)[C@@H](C)CC)[C@@H](C)CC)[C@@H](C)CC)[C@@H](C)CC)[C@@H](C)O)C(N)=O", "note": "[compound 211]", "values": [{"measurement": "Emax", "setting": "CRF2R", "result": 100, "unit": "%"}, {"measurement": "Emax", "setting": "CRF1R", "result": 37, "unit": "%"}]}
